Literature values as cited in patent US20070025986A1, “Modulation of HCN channels by second messengers” (priority 2003, published 2007).

System: native pacemaker channels (IH)
Settings: cited from earlier work

SMILES: CCCN1CCC[C@@H]2Cc3n[nH]cc3C[C@H]21 [quinpirole]
- Δ V1/2: −9 mV ORN; −17 mV ROD
